TCR activator – activators of T cell receptors | primary human leukocytes, anti-CD3, IL-2 HTRF, 48 h | Potency, µM (top dose mostly 9.22 µM), hits mostly activators | 330,000 tested, under 10 active | AID 504894
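Primary human leukocytes were stimulated with a-CD3 beads plus compounds for 48 hr without co-stimulation; secreted IL-2 was quantified by HTRF using a-IL-2-K (europium cryptate) and a-IL-2-d2, excited at 320nm with acceptor emission read at 665nm.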
IL-2 act – IL-2 activation; IL-2 activation reporter assay, cell-based qHTS; stimulated with anti-CD3/CD4/CD28 beads; in transgenic mouse T cells; activation, % (series mostly up to about 46 µM); 360,000 tested, 0.065% active; AID 652025; in the data active means activation above about 50%; inconclusive means mostly about 30% to 49%
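Readout: EGFP and DsRed signals by fluorescent plate cytometry. Unstimulated transgenic mouse T cells received compound 60 min before antibody-bead stimulation, then incubated 18 h at 37 degrees C.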
miR-21 reporter – miR-21 reporter, rising signal | AID 2288 | HeLa miR-21 FLuc reporter, luciferase, 48 h | 340,000 tested, under 10 active | Potency, µM (titrated, usually from 38.3 µM); active = well fitted rising curve with a large enough effect; inconclusive = small, poorly fitted or top-dose-only effect; inactive = no such curve, though single readings can be large or run the other way;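 also: miR-21 action dims this reporter so a rising signal means less miR-21 action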
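HeLa miR-21-FLuc reporter line, endogenous miR-21; 2000 cells/well in DMEM/10% FBS; compound titration up to ~40uM final, 48 h, 37 degree Celsius; luciferase detection reagent, 15 min lysis, CCD luminescence.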
RXFP1 antag – blocks the human relaxin receptor RXFP1. HEK293-RXFP1, relaxin-stimulated cAMP HTRF, 30 min; active compounds read low. activity change, negative = inhibition, % at 57.5 µM. 350,000 tested, 0.59% active;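 active means activity change of -60% or lower, but not beyond a set lower limit; inconclusive means change between -60% and -40%, or beyond the set limit; inactive means change above -40%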
PINK1 expr mod – PINK1 expression modulation. AID 624263. Potency, µM (titrated, usually from 76.6 µM), most hits filed as activators. PINK1 immunofluorescence, high-content cytometry, 24 h. 410,000 tested, 0.2% active; active means well fitted activation curve with a large enough effect; inconclusive means small, poorly fitted or top-dose-only effect; cell line not stated here; further: nearly all actives have a fitted effect of over 65% in size
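Compound titrations (5 concentrations, 24 h) on a stable cell line; DMSO and CCCP controls. Endpoint: fixed-cell PINK1 immunofluorescence with mitochondrial, cell and nuclear markers, scanned by microplate cytometer.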
RXFP1 ag – activates the human relaxin receptor RXFP1 | Q9HBX9 | HEK293T-RXFP1 cAMP TR-FRET, 30 min; response scale: percent of porcine relaxin response, buffer zero | Potency, µM (doses to about 57.5 µM), most hits filed as activators | 370,000 tested, 0.3% active; further: nearly all actives have a fitted effect of over 60% in size
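HEK293 cells stably expressing RXFP1, treated 30 min at 37C with compounds plus PDE4 inhibitor Ro 20174; cAMP measured by HTRF TR-FRET. Normalized to buffer and 29 nM porcine relaxin; EC50 by Hill fit.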
Hits are given with their value; . = inactive; ? = inconclusive; / = no result given; ! = not confirmed by another sample. Sampled rows, rich in hits. Any-hit rate of the full collection: about 0.78%. Unless noted, the call rests on the fitted dose curve; in most records, active means well fitted curve in the direction sought with a large enough effect; inconclusive means small, poorly fitted or top-dose-only effect, or another doubt; inactive means no such curve, though single readings can be large; an effect the other way counts as inactive or inconclusive.

SMILES | TCR activator | IL-2 act | miR-21 reporter | RXFP1 antag | PINK1 expr mod | RXFP1 ag
O=C(Nc1ccc2nc(SCC(=O)N3CCOCC3)sc2c1)c1ccc(F)cc1 | / | / | . | . | . | .
Cc1cnc(C)c(-c2cc(F)cc3c2OC(CNC(=O)Cc2ccccc2C)C3)n1 (stereo not given) | / | / | / | / | . | /
Clc1ccc(-n2cccc2CN2CCc3nnc(Cc4ccccc4)n3CC2)nc1 | / | / | / | / | . | /
O=C(Nc1ccc2nc(SCC(=O)N3CCOCC3)sc2c1)c1cccc(F)c1 | / | / | . | -86.2 | . | .
O=[N+]([O-])c1cc(Cc2ccccc2)cc(C=Nc2ccc(N3CCOCC3)cc2)c1O | . | . | . | -75.3 | . | .
Oc1c(C(Nc2nccs2)c2ccc(C(F)(F)F)cc2)ccc2cccnc12 (stereo not given) | . | . | . | ? | . | .
Oc1c(C(Nc2cccc(C(F)(F)F)c2)c2ccncc2)ccc2cccnc12 (stereo not given) | . | . | . | -60.8 | . | .
COc1ccc(C(C)C)cc1S(=O)(=O)NCCCn1ccnc1 | . | . | . | -63.3 | . | .
CCc1nc2c(OCc3cccc(Cl)c3)cccn2c1N(C)C(=O)C(C)C | / | . | / | / | . | /
CCc1nc2c(OCc3cccc(Cl)c3)cccn2c1N(C)C(C)=O | / | 54.6 | / | / | . | /
O=C(CCN1CCOCC1)c1ccc(N2CCCCC2)cc1 | . | . | / | / | . | .
CC(C)(C)c1cc(C(=O)CCN2CCOCC2)cc(C(C)(C)C)c1O | . | . | . | -82.7 | . | .
O=C(O)Cn1cnnn1 | / | / | / | . | / | /
CCS(=O)(=O)c1ccc(N=Nc2ccc(O)c3ncccc23)c(OC)c1 | . | . | ? | . | 14.1µM | .
COc1ccccc1N1C(=O)S/C(=C\c2cc(C)n(C)c2C)C1=O | . | . | . | . | . | .
COc1ccccc1N1C(=O)S/C(=C\c2ccc(C)s2)C1=O | / | 88.3 | . | . | ? | .
N#Cc1cc(C(=O)c2cc(Br)ccc2O)cn(C2CCCCC2)c1=O | . | . | . | . | 22.4µM | .
Cc1c(N=Cc2ccco2)c(=O)n(-c2ccccc2)n1C | . | . | . | . | . | .
COc1ccc2c(C=Nc3c(C)n(C)n(-c4ccccc4)c3=O)c(O)n(Cc3ccco3)c(=O)c2c1 | . | 65.0! | . | . | . | .
CCOc1ccc(-n2cc(-c3ccc(OC)c(OC)c3)[nH]c2=S)cc1 | . | . | . | -76.2 | . | .
COc1cccc(C2(CC(=O)N3CCN(c4nonc4C)CC3)CC(=O)N(C3CCCC3)C2=O)c1 (stereo not given) | / | / | / | / | . | /
Cc1onc(-c2ccccc2)c1C(=O)Nc1ncc([N+](=O)[O-])s1 | . | . | ? | . | 12.6µM | .
Cc1ccc(C(=O)Nc2ncc([N+](=O)[O-])s2)cc1 | . | . | ? | . | 35.5µM | .
Oc1ccc(/C=N/N(Cc2ccccc2)c2ccccc2)c(O)c1O | . | . | . | -92.4 | . | .
Oc1cccc(/C=N/N(Cc2ccccc2)c2ccccc2)c1 | . | . | . | . | . | .
SMILES | TCR activator | IL-2 act | miR-21 reporter | RXFP1 antag | PINK1 expr mod | RXFP1 ag
CCNc1nc(N)c(C(=O)C23CC4CC(CC(C4)C2)C3)s1 | . | . | . | -67.6 | . | .
CCc1ccc2[nH]c(=O)c(CN(CCN(C)C)C(=S)NCc3ccco3)cc2c1 | . | . | . | -64.1 | . | .
CCc1ccc2[nH]c(=O)c(CN(CCN(CC)CC)C(=S)NCc3ccco3)cc2c1 | . | . | . | . | . | .
COc1cc(OC)nc(O[C@H](C(=O)O)C(OC)(c2ccccc2)c2ccccc2)n1 | / | / | / | . | / | /
COc1ccc(N2C(=O)C(Cl)=C(N3CCOCC3)C2=O)cc1 | . | . | . | -61.7 | . | .
CCOc1ccc(N=C(C)C2=C(O)c3ccccc3C2=O)cc1 | . | . | . | -62.7 | . | .
C=CCOc1cccc(C(=O)/C=C2/C(=O)Nc3ccccc32)c1 | . | . | ? | ? | . | .
O=C1Nc2ccc(Br)cc2/C1=C/C(=O)c1ccccc1 | . | . | / | -82.5 | . | /
CC(=O)/C=C1/C(=O)Nc2ccccc21 | . | . | . | -73.0 | . | .
O=C(CN1C(=O)c2ccccc2C1=O)Nc1ccc(S(=O)(=O)N2CCOCC2)cc1 | . | . | . | -81.7 | . | .
CCn1nc(C)cc1C(=O)NCC1Cc2cc(C)cc(-c3ccccc3C(=O)OC)c2O1 (stereo not given) | / | / | / | / | . | /
Cc1cc(C)c(S(=O)(=O)n2ccc3ccccc32)c(C)c1 | . | . | . | . | 39.8µM | .
O=S(=O)(c1ccccc1)n1ccc2ccccc21 | . | . | . | . | . | .
O=C(c1ccccc1)N1CCCCC(S(=O)(=O)c2ccc3ccccc3c2)C1=O (stereo not given) | / | . | . | . | 5.01µM | .
O=C1OCCC1S(=O)(=O)c1ccc2ccccc2c1 (stereo not given) | . | . | . | . | . | .
CC(C)Oc1cccc(C(=O)C2CCCN(Cc3cnc(N4CCOCC4)s3)C2)c1 (stereo not given) | . | . | . | -64.6 | . | .
O=C(NCc1cccnc1)c1cnn(-c2nccc(-c3cccs3)n2)c1C1CC1 | / | / | / | / | . | /
Cc1ccc(CNC(=O)c2ccc3c(c2)NC(=O)C(N2CCOCC2)S3)cc1 (stereo not given) | . | . | . | -61.7 | . | .
O=C(NCCCN1CCCCCC1)c1ccc2c(c1)NC(=O)C(N1CCOCC1)S2 (stereo not given) | . | . | . | . | . | .
Cc1ccc(NC(=S)NC(NC(=O)c2ccccc2)C(Cl)(Cl)Cl)c(C)c1 (stereo not given) | . | . | ? | . | 39.8µM | .
OC1(c2ccc(Cl)cc2)CCNCC1 | / | / | / | . | / | /
CCCCN(CCCC)C(=S)N/N=C/c1c(C)[nH]n(-c2ccccc2)c1=O | . | . | . | . | . | .
CCCSC(=S)c1c(C)[nH]n(-c2ccccc2)c1=O | . | . | . | -70.3 | ? | .
Cc1cccc2sc(N(CCCN(C)C)C(=O)CCc3ccccc3)nc12 | . | . | ? | -84.7 | . | .
CC(=O)c1ccc(C(=O)N(CCCN(C)C)c2nc3c(C)c(C)ccc3s2)cc1 | / | / | . | / | . | .
Cc1ccc2sc(N(CCCN(C)C)C(=O)c3ccc(Br)s3)nc2c1C | . | . | . | -77.2 | . | .
O=C(Nc1ccc(N2CCN(C(=O)c3cccs3)CC2)cc1)c1ccc(F)cc1 | . | . | . | -66.3 | . | .
Cc1cc(=O)c(C(=O)N(C)CCc2ccccn2)c2n1-c1ccccc1SC(c1ccsc1)C2 (stereo not given) | / | / | / | / | . | /
N#Cc1c(-c2ccco2)nc(SCc2ccc(F)cc2)[nH]c1=O | . | . | . | . | . | 25.1µM

High-throughput results from PubChem BioAssay.
